In ChEMBL document CHEMBL1127843, “2-(3,4-Dichlorophenyl)-N-methyl-N-[(1S)-1-(3-isothiocyanatophenyl)-2-(1-pyrrolidinyl)ethyl]acetamide: an opioid receptor affinity label that produces selective and long-lasting kappa antagonism in mice” (J Med Chem, 1994) one finds IC50 data, which are given here for one molecule.

By UniProt entry, the sequences of proteins in these tests, tags left out.
UniProt P97266, whole entry, looked up: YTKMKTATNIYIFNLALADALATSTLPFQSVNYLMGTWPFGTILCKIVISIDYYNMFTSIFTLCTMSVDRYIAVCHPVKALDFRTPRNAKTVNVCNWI

SMILES strings stand for the structures. pIC50: −log10 of the molar value.

For the assay, the target named is Mu-type opioid receptor (Cavia porcellus, UniProt P97266). The assay is described as follows: Binding affinity of compound towards mu receptor by using radioligand [3H]DAMG0 on guinea pig brain membranes.

With `CN(C(=O)Cc1ccc(Cl)c(Cl)c1)[C@H](CN1CCCC1)c1cccc(N=C=S)c1`, the pIC50 (in general, the IC50 on a negative log10 scale, so that one unit is a factor of ten) is 5.74.
